# Tested on: human platelets
# Settings: whole human blood, 10 μM ADP; Example 44 tested from 0.31 to 5 μg/ml
smiles,measurement,value
"CC(=O)Oc1ccccc1C(=O)O [aspirin, reference compound]",inhibition of platelet dense granule ATP release reaction,"able to completely inhibit the process in vitro, albeit at higher concentrations"
